From ChEMBL document CHEMBL5727219, “Kinase inhibitors and method of treating cancer” (2019)

Experiment: Inhibition Assay: PLK3 inhibition was determined using the Z-Lyte assay kit from Invitrogen (cat #PV3802). The assay was performed using the recommended manufacturer's instructions with 100 μM ATP and 21 nM PLK3 (Invitrogen cat #PV3812). The % inhibition values were determined according to the manufacturer's directions and IC50 values were obtained using a non-linear 4 point logistic curve fit (XLfit4, IDBS).

SMILES: COc1ccc2c(c1)[C@]1(C[C@H]1c1ccc3c(C#Cc4ccc(CN5CCOCC5)cc4)n[nH]c3c1)C(=O)N2
- IC50: in the range around 550 nM
